Laboratory results taken from patent US20260224567A1, “METHODS FOR TREATING NEUROBLASTOMA WITH A DUAL ANAPLASTIC LYMPHOMA KINASE AND FOCAL ADHESION KINASE INHIBITOR” (The Regents of the University of Michigan, priority 2023, published 2026).

Legend:
[1] = tested on: Felix (ALK F1254C mutation); test: NB PDX model Felix; assay type: in vivo, mice; conditions: ESK440 PO QD or BID
[2] = tested on: COG-N-452 (ALK F1174L mutation); test: NB PDX model COG-N-452; conditions: COG-N-452 PDX; ESK440 PO QD or BID
[3] = tested on: COG-N-415x; test: one-week survival assay, COG-N-415x; assay type: cell-based; conditions: 168 h, ALK F1174L, MYCN Amp, treated for one week
[4] = tested on: COG-N-453 (ALK F1174L mutation); test: NB PDX model COG-N-453; conditions: COG-N-453 PDX; varying doses of ESK440 PO BID

`CNC(=O)c1ccccc1Nc1nc(Nc2ccc3c(c2OC)CCC[C@H](N2CCN(CCO)CC2)C3)ncc1Cl` [ESK440, (S)-2-((5-chloro-2-((6-(4-(2-hydroxyethyl)piperazin-1-yl)-1-methoxy-6,7,8,9-tetrahydro-5H-benzo[7]annulen-2-yl)amino)pyrimidin-4-yl)amino)-N-methylbenzamide] was tested, and the “body weights of mice” value [1] was “not affecting”, the tumor growth [1] was “decreased” and the tumor weight [1] was “decreased”. The “body weights of mice” value [2] was “not affecting”, the tumor growth [2] was “decreased” and the tumor weight [2] was “decreased”. The IC50 [3] was 189 nM, the “body weights of mice” value [4] was “not affecting” and the tumor growth [4] was “decreased”. The tumor weight [4] was “decreased”.
